## AlphaSeq binding of Ab-95 light chain variants to a spike HR2 peptide

Source: Engelhart et al. 2022 (doi:10.1038/s41597-022-01779-4), MIT Lincoln Laboratory and A-Alpha Bio; data file from the FLAb repository.

Antigen: PDVDLGDISGINAS, a 14-residue peptide of the SARS-CoV-2 spike HR2 region.

Parent scFv Ab-95: VH joined to VL by three GGGGS repeats. Changes lie in the light chain CDRs alone.
VH: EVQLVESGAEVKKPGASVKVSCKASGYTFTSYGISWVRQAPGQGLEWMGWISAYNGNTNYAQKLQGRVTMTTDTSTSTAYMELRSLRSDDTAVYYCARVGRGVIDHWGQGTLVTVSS
VL: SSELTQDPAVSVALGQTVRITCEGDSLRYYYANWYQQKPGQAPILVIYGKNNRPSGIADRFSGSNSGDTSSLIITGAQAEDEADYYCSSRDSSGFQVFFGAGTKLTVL

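Phage display of a naive human antibody library on the peptide gave the parent. Library AAYL52 holds single substitutions and randomly drawn double and triple substitutions in the CDRs. The assay is AlphaSeq: two haploid yeast populations carry antibody and antigen on their surface. The frequency of each diploid, read from paired DNA barcodes, reflects how well the two displayed proteins bind. Read counts were normalised to the haploid input and turned into Kd by a linear fit to BCL2-family pairs of known affinity, for each replicate. Mating was done three times.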

Variants are written as CDR1, CDR2 and CDR3 of the light chain (limits as in the source). Parent: EGDSLRYYYAN, GKNNRPS, SSRDSSGFQVF.
Affinities are written as log10 Kd with Kd in nM; a lower number is a better binder.
Averages over replicates are reported, and they cover detected replicates only.
"n.d." means that the variant was in the library but no mating with the target was seen in that replicate; the authors take this as a sign of poor binding, and no number exists.
Parent in this assay: reference entry 2.31, copy in this library 2.25.
Empty control strains, which show no peptide, gave a signal in 28% of pairings with library AAYL52; the median was 3.91 and 95% of these signals were weaker than 2.90. No background was subtracted. Also given: how often the same scFv was detected with the empty control strains, with their mean in brackets.

| CDR-L1 | CDR-L2 | CDR-L3 | log10 Kd (nM) by replicate | mean, log10 nM | empty controls |
|---|---|---|---|---|---|
| EGGSLRYYYAN | GKNNRPS | SSRGSAGFQVF | 3.47 / 2.46 / 3.10 | 3.01 | 2 of 9 (4.38) |
| EGDSLRYYYAN | GKRNRPS | SSDDSSGFRVF | n.d. / 3.93 / n.d. | 3.93 | 5 of 9 (4.84) |
| EGDSLRYYYAN | GYGNRPS | SSRDSSGFQAF | 3.65 / 5.09 / 3.15 | 3.96 | 5 of 9 (4.53) |
| EGDSLRYDLAN | GKNARPS | SSRDSSGFQVF | 2.16 / 2.19 / 1.81 | 2.05 | 5 of 9 (4.03) |
| EGDSLTYIYDN | GKNNRPS | SSRDSSGFQVF | 5.26 / n.d. / n.d. | 5.26 | 2 of 9 (4.25) |
| EGDSLRYYYAP | GVNNRPS | SSRDSSGFQVF | n.d. / n.d. / n.d. | n.d. | 2 of 9 (4.81) |
| EGDSLYYYYAN | GKNNRPD | SSRDSPGFQVF | 3.26 / 2.31 / 1.86 | 2.48 | 2 of 9 (4.04) |
| QGDSLRYYYAN | GKNNAPS | SSRDSSYFQVF | 2.78 / 2.77 / 2.59 | 2.72 | 0 of 9 |
| EGDSLRYYYCN | GDNNRPS | SSRDNSGFQVF | 2.40 / 2.62 / 2.58 | 2.53 | 4 of 9 (3.76) |
| EGDSLRYYYAN | GKNNRPS | MCRDSSGFQPF | n.d. / 3.12 / n.d. | 3.12 | 1 of 9 (4.06) |
| NGDSLRYYGAN | GKNNRPS | SSRDSRGFQVF | 2.12 / 1.98 / 1.94 | 2.02 | 4 of 9 (4.45) |
| EGDSLYYYYAN | GKNNRPK | SSRDSSCFQVF | 3.69 / 3.51 / n.d. | 3.60 | 4 of 9 (3.94) |
| EGDGLRSYYAN | GKNNRPS | SSRDFSGFQVF | 2.87 / 2.69 / 2.87 | 2.81 | 3 of 9 (3.84) |
| EGDSLEYYYAN | GKNNRPS | SSRDSSGFPVF | 2.69 / 3.17 / 3.83 | 3.23 | 1 of 9 (3.80) |
| EEDSLRYYYAN | GKTNRPS | SSRDSSGFQVL | n.d. / 3.69 / n.d. | 3.69 | 1 of 9 (4.67) |
| EGDSLKYYLAN | GKNNRPS | SSRDSDGFQVF | 2.93 / 2.90 / 2.46 | 2.76 | 4 of 9 (3.65) |
| EGDSLRYYYAN | GKNNRPS | SSTDWSGFFVF | n.d. / 2.71 / 3.65 | 3.18 | 2 of 9 (3.36) |
| FYDSLRYYYAN | GKNNRPS | LSRDSSGFQVF | 4.00 / n.d. / 3.64 | 3.82 | 4 of 9 (4.62) |
| EGDSLRYYYAN | GKNNRPS | MTRDSSNFQVF | n.d. / 5.75 / 4.59 | 5.17 | 3 of 9 (3.68) |
| EGDSLRYYYAN | GKNARPS | SSRDSSGFQMC | 2.35 / 2.30 / 2.39 | 2.35 | 4 of 9 (3.40) |
| AGDSLRYYYAF | GKNNRPS | SSRDSLGFQVF | n.d. / 3.95 / n.d. | 3.95 | 2 of 9 (3.77) |
| EGDSLRYYYAN | GKNNGPS | SSRDSMGFQVT | n.d. / n.d. / n.d. | n.d. | 1 of 9 (3.42) |
| EGDSLRNYHAN | GKNNRPS | SSRDPSGFQVF | 1.44 / 1.37 / 0.99 | 1.26 | 4 of 9 (4.41) |
| NGDSLRYYYAN | YKNNRPS | SSRDSSMFQVF | n.d. / 4.35 / n.d. | 4.35 | 0 of 9 |
| ERDSLRYYYAN | GKNRRPS | SQRDSSGFQVF | n.d. / n.d. / n.d. | n.d. | 0 of 9 |
| EGDSWRYYYAN | GKVNRPS | TSRDSSGFQVF | n.d. / 3.72 / n.d. | 3.72 | 1 of 9 (2.66) |
| EGRSLRKYYAN | GKNNRPS | SSKDSSGFQVF | 3.04 / 4.93 / n.d. | 3.99 | 1 of 9 (2.97) |
| EGDSLRYYYIN | GPNNRPS | SSRDSSNFQVF | 3.36 / 3.58 / 3.44 | 3.46 | 3 of 9 (4.34) |
| EGDSLRYYYAN | GKNNRPC | SCGDSSGFQVF | 3.88 / 3.69 / 2.59 | 3.38 | 2 of 9 (4.29) |
| EGDSLRYYYAN | GKNNRQH | SSRDDSGFQVF | 3.01 / 3.39 / n.d. | 3.20 | 2 of 9 (4.01) |
| EGDSLRYYYAN | GKNNRPS | SSRDSSYVQIF | 3.73 / 3.38 / 3.08 | 3.40 | 2 of 9 (3.47) |
| EGDSLRYYYAF | GKNNRPS | SKRDSSGFQVF | n.d. / 3.77 / 4.03 | 3.90 | 1 of 9 (3.14) |
| EGDSLRYYYFN | GKNNRPS | SSMDHSGFQVF | n.d. / 3.70 / n.d. | 3.70 | 0 of 9 |
| EGLSLRYYYAN | GKNNRPS | SSYDSSHFQVF | n.d. / n.d. / n.d. | n.d. | 1 of 9 (3.39) |
| EGDSLRYYYAN | GDNNRPG | SSRDSSGFQVF | 2.49 / 2.33 / 2.75 | 2.53 | 1 of 9 (3.11) |
| EGDSLRYYYAN | GTNNRPS | SSPDSSGFTVF | 3.32 / 3.05 / 4.10 | 3.49 | 4 of 9 (3.56) |
| EGDSLREYYWN | GKNNRPS | SSRDSSRFQVF | n.d. / 3.72 / n.d. | 3.72 | 2 of 9 (3.54) |
| EGDSNRYYYAN | QKNNTPS | SSRDSSGFQVF | 4.36 / 3.16 / 4.50 | 4.01 | 4 of 9 (3.88) |
| EGDSLRSYYAN | GKNNRPS | QSRDSDGFQVF | 2.53 / 2.60 / 2.38 | 2.50 | 4 of 9 (3.46) |
| EGDSLRYYFAN | GCNNRPS | SSRDSSWFQVF | 5.31 / n.d. / n.d. | 5.31 | 2 of 9 (3.35) |
| EGDSLEYYYAN | GKNTRPS | SSRDSSGFQRF | 3.23 / 3.09 / 2.87 | 3.06 | 4 of 9 (3.88) |
| EGNDLRYYYAN | GKNARPS | SSRDSSGFQVF | 2.75 / 2.65 / 2.75 | 2.72 | 2 of 9 (3.19) |
| ERDSLRYYYAN | GKNNRPS | SSRDSSGFQRF | 4.96 / 3.62 / 4.50 | 4.36 | 1 of 9 (4.18) |
| EGDQLRYYYAN | GKNNRPS | STRDSFGFQVF | n.d. / 2.66 / n.d. | 2.66 | 1 of 9 (3.48) |

From the list, the first 4 with no signal in any replicate:

CDR-L1	CDR-L2	CDR-L3	log10 Kd (nM) by replicate	mean, log10 nM	empty controls
EGDSLRYYYAP	GVNNRPS	SSRDSSGFQVF	n.d. / n.d. / n.d.	n.d.	2 of 9 (4.81)
EGDSLRYYYAN	GKNNGPS	SSRDSMGFQVT	n.d. / n.d. / n.d.	n.d.	1 of 9 (3.42)
ERDSLRYYYAN	GKNRRPS	SQRDSSGFQVF	n.d. / n.d. / n.d.	n.d.	0 of 9
EGLSLRYYYAN	GKNNRPS	SSYDSSHFQVF	n.d. / n.d. / n.d.	n.d.	1 of 9 (3.39)